Results on 1 compound are retold here after patent publication US20230000842A1, “METHODS OF TREATING CARTILAGE DISORDERS THROUGH INHIBITION OF CLK AND DYRK” (SAMUMED, LLC, priority 2019, published 2023).

Sequences of proteins named here, by UniProt entry; tags and fusion partners are left off.
UniProt P49760, whole entry: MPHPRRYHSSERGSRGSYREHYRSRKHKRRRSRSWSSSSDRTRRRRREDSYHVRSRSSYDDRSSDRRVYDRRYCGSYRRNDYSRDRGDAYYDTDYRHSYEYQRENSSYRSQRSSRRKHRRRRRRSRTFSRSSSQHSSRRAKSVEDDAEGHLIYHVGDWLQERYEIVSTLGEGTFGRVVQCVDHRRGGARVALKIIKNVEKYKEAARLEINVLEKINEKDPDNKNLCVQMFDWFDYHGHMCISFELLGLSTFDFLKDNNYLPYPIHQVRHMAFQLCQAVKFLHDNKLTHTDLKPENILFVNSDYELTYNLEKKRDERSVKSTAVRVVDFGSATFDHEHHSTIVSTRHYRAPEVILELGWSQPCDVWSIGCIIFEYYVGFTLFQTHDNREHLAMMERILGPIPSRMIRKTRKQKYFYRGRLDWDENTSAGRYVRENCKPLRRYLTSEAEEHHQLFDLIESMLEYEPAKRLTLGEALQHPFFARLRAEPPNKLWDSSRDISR

Test [1] relates to MMP-3 levels in supernatant of chondrocytes stimulated with IL1-β. The experiment in a line: Chondrocyte protection assay compound screening (MMP-3 LANCE Ultra). The note with it: IL1-β 10 ng/mL overnight, 11-point curves from 3 μM to 0.05 nM. In general terms: In TR-FRET formats the signal depends on donor and acceptor labels being close together.
A further test has as its target CLK2 kinase (Homo sapiens, UniProt P49760). The experiment in a line: CLK2 kinase activity assay (Z-lyte FRET).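 Also: FRET read-out as coumarin to fluorescein emission ratio, unphosphorylated peptide as 0% and phosphorylated peptide as 100% controls, duplicate reactions, non-linear regression fit of dose-response curves.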 Type of test: biochemical. Particulars: Z-lyte Ser/Thr 6 peptide, 60 μM ATP, 1 h at room temperature.

Take `CN1CCN(c2ccc(NC(=O)c3n[nH]c4ccc(-c5cncc(NC(=O)c6c(F)cccc6F)c5)cc34)cn2)CC1`: the half-maximal effective concentration (EC50) (usually the concentration needed to bring the measured effect to its halfway point) was not below 3000 nM in test [1] and 1 nM at CLK2 kinase. Moreover, the “Maximum % Inhibition” value in test [1] amounted to 54.9%.
